The numbers were not newly measured in patent publication US20200087374A1, “INTERACTION BETWEEN C-PEPTIDES AND ELASTIN RECEPTOR, A MODEL FOR UNDERSTANDING VASCULAR DISEASE” (Resiliun B.V., priority 2017, published 2020), which cites them from elsewhere.

For this data set the following is noted: cited from earlier work.

For insulin, the plasma half-life is around 4 min.
